Earlier results, collected in patent publication US9925277B2, “Polynucleotide compositions containing amino acids” (ModernaTX, Inc., priority 2013, dated 2018).

Details: in vivo, iv

With “penta[3-(1-laurylaminopropionyl)]-triethylenetetramine hydrochloride [Grp 98N12-5]” as the substance, how does the “distribution of the formulation to the liver” value read?
The value was “greater than 90%”.
